Measurements: publication PMC12101129, “An optimized CYP3A4-activatable fluorogenic sensor for in situ functional imaging and multi-dimensional inhibitor assessment” (Chemical Science, 2025)

Tested on: Hep3B cells
Assay: CCK-8 cytotoxicity assay
Assay type: cell-based

CC(=O)N1CCN(c2ccc(OCC3COC(Cn4ccnc4)(c4ccc(Cl)cc4Cl)O3)cc2)CC1 (stereo not shown) [KCZ, ketoconazole]
cytotoxicity: minimal cytotoxicity
